Earlier results, collected in patent publication US10226455B2 (priority 2014, dated 2019).

Settings: after administration; cited from earlier work

In the case of ivermectin, the “time to maximal tissue absorption” value is listed as 3 to 5 h.
